Results on two molecules are retold here after patent US9169205B2, “Pyrrolidine derivatives, pharmaceutical compositions and uses thereof” (Boehringer Ingelheim International GmbH, priority 2012, dated 2015).

Chains of the proteins cited; added tags and fusions are not shown. Residues count along the entry.
UniProt O00763, 129-2458 limits assumed: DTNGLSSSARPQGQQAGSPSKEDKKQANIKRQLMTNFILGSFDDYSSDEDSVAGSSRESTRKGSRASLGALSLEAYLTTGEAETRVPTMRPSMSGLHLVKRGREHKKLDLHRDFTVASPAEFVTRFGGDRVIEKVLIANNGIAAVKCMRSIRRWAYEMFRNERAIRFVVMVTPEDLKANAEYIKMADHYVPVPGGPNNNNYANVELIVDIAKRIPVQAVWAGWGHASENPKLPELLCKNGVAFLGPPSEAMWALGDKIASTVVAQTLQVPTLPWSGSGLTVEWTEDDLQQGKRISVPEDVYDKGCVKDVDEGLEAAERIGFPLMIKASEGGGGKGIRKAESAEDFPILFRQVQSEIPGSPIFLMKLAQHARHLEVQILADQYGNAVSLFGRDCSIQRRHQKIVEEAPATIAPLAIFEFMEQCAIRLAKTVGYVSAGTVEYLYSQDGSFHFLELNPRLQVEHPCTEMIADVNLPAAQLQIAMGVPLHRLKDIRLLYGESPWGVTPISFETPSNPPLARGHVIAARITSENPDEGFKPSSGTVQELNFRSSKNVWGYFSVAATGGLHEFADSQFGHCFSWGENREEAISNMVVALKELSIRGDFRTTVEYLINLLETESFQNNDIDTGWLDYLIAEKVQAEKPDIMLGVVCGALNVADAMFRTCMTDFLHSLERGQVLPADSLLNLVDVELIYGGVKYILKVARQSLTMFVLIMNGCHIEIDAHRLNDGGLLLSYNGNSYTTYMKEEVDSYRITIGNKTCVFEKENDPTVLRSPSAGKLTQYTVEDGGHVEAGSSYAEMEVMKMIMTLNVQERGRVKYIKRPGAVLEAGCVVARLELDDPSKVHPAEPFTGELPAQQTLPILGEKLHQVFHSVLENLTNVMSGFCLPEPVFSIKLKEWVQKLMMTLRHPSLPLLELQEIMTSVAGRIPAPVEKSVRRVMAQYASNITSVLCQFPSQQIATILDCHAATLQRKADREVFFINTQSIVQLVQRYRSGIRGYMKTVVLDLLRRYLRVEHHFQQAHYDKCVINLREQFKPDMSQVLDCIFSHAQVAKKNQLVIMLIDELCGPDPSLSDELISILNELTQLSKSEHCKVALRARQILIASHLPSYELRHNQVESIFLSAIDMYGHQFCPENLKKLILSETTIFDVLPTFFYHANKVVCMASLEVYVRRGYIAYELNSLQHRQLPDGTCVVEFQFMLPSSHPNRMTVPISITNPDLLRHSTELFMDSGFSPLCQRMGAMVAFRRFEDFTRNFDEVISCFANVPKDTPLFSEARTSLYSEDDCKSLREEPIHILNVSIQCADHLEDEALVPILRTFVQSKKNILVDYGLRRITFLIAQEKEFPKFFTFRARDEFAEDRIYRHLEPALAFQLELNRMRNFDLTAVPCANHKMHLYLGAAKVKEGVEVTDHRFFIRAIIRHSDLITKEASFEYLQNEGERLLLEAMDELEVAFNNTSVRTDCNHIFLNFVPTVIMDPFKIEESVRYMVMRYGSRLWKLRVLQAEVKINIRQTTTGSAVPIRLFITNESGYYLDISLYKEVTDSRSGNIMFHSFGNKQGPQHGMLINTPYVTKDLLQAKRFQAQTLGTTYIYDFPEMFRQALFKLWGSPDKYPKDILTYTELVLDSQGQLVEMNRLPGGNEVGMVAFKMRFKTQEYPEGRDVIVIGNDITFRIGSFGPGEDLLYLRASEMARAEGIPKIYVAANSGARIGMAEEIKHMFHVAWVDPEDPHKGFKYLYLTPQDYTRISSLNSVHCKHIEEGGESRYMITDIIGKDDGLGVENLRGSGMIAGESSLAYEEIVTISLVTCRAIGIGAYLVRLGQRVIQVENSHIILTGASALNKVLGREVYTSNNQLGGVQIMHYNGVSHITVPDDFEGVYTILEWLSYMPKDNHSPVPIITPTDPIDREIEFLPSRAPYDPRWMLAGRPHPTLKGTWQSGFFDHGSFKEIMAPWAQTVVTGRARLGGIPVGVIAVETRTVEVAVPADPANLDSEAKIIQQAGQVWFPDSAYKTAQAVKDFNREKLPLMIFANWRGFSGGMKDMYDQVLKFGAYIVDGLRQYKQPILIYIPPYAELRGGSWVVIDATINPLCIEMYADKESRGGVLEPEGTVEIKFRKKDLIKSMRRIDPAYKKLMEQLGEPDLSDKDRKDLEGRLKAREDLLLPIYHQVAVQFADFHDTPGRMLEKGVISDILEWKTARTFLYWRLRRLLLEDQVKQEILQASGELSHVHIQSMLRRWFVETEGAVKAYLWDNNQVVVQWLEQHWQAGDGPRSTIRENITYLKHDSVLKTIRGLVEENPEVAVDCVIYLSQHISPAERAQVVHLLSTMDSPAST

pIC50: −log10 of the molar value.

This assay concerns the target human ACC2 (Homo sapiens (Human), UniProt O00763). In words: ACC2 assay (spectrophotometric 384 well assay, NADH-linked kinetic method). As to conditions: hACC2 construct lacking 128 N-terminal amino acids, 25° C., 340 nm.

For the molecule `CC(=O)N[C@@H](C)c1ccc(O[C@@H]2CCN(c3ccc(Cl)c(Cl)c3)C2)cc1`, the pIC50 (as a rule, the negative decadic logarithm of the IC50, by convention in mol/L) was 6.41.

`C[C@H](NC(=O)N(C)C)c1ccc(O[C@@H]2CCN(c3ccc(OCC4CC4(F)F)cc3F)C2)cc1` (some centres unmarked): the negative logarithm of the IC50 (pIC50) is 6.41.
